# Target: PIK3CD (Human) (UniProt O00329)
# By UniProt entry, the sequences of proteins in these tests, tags left out. Where a name states a change or a piece, a line headed by the entry shows the natural chain unless it says otherwise.
# UniProt O00329: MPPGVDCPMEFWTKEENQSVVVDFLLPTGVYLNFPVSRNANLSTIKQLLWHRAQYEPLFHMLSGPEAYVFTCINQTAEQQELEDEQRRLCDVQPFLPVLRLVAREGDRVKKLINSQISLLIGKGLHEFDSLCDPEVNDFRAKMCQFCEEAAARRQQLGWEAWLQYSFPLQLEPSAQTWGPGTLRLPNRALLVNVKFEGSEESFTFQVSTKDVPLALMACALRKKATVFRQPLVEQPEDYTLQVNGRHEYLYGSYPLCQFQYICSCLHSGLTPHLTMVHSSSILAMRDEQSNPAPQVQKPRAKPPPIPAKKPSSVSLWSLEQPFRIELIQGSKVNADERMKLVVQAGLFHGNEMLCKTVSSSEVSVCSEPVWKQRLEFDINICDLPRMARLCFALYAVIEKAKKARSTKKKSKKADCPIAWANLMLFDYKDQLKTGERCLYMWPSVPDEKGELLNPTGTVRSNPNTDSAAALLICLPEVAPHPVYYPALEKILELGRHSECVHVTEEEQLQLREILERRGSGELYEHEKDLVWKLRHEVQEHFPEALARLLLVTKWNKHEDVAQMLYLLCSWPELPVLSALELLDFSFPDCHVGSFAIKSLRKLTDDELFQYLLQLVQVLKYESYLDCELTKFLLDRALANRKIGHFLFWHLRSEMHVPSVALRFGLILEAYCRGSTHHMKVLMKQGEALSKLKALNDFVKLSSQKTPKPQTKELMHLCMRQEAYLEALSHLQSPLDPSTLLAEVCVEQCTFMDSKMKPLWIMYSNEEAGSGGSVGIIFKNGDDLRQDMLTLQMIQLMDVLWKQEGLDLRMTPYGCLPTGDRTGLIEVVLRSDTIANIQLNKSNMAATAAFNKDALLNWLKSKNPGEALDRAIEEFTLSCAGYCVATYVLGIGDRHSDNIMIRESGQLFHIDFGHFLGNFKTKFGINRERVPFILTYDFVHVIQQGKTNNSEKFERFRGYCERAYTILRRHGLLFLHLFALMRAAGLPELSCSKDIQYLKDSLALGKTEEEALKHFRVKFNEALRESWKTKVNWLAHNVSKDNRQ
# Test: Assessment of PIK3CD Kinase Activity (Scintillation Proximity Assay)
row,SMILES,IC50 [nM]
1,CCOc1c(C(C)n2ccc(=O)c3c(N)ncnc32)cc(Cl)c(C)c1-c1ccc(C(=O)N(C)C)nc1 (configuration not stated),≤ 10
2,COc1c(C(C)n2nc(C)c3c(N)ncnc32)cc(Cl)c(C)c1C1CC(O)C1 (configuration not stated),≤ 10
3,CCOC(=O)C(C)(C)N1CC(c2c(C#N)c(Cl)cc(C(C)n3nc(C)c4c(N)ncnc43)c2OCC)C1 (configuration not stated),≤ 10
4,COc1c(C(C)n2nc(C)c3c(N)ncnc32)cc(C)c(C#N)c1-c1cncc(S(C)(=O)=O)c1 (configuration not stated),≤ 10
5,COc1c(C(C)n2nc(C)c3c(N)ncnc32)cc(C)c(C#N)c1-c1ccc(C(=O)N(C)C)nc1 (configuration not stated),≤ 10

# The remaining lines, values ahead:
row,IC50 [nM],SMILES
1,≤ 10,COc1c(C(C)n2nc(C(F)F)c3c(N)ncnc32)cc(Cl)c(C)c1C1CN(C(C)C)C1 (configuration not stated)
2,≤ 10,COc1c(C(C)n2nc(C)c3c(N)ncnc32)cc(Cl)c(F)c1C1CN(C(C)C)C1 (configuration not stated)

# From the Kinase Knowledgebase extract (Sharma et al. 2016)
